biological target: T1, hCB1 (Homo sapiens, UniProt P21554); assay: functional fluorescent CB1 activated Gαq16-coupled intracellular calcium mobilization assay in CHO-K1 cells; assay type: cell-based; design: expressed in transfected cells; host or cells: CHO-K1 (membranes); conditions: not given

Sequences of proteins named here, by UniProt entry; tags and fusion partners are left off.
UniProt P21554, whole entry: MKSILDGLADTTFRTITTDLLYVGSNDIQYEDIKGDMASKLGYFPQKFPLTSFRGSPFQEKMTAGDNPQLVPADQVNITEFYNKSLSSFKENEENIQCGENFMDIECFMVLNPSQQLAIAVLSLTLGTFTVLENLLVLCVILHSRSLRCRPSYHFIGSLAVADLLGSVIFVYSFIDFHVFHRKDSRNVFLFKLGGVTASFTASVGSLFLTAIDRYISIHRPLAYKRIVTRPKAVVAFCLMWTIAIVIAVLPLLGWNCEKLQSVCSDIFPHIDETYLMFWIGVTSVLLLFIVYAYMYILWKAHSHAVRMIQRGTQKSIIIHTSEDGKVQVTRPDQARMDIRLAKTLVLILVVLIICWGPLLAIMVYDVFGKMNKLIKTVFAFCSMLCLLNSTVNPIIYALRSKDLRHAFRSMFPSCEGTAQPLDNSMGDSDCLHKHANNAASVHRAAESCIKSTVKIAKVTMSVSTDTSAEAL
UniProt P34972, whole entry: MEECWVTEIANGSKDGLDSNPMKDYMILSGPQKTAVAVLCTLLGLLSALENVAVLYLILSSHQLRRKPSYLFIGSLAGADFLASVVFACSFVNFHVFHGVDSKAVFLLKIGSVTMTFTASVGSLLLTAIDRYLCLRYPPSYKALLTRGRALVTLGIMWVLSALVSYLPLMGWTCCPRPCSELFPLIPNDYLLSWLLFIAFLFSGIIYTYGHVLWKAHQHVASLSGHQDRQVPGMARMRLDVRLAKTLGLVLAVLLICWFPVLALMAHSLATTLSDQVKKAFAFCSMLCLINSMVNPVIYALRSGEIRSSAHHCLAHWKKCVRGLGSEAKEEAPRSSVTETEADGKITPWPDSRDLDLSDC

Point of comparison: `O=C(Nc1ccc(OC(F)F)nc1)NC1CCN(c2ncnc3c2nc(-c2ccccc2Cl)n3-c2ccc(Cl)cc2)CC1` [Compound 25, 3-{1-[8-(2-Chlorophenyl)-9-(4-chlorophenyl)-9H-purin-6-yl]piperidin-4-yl}-1-[6-(difluoromethoxy)pyridin-3-yl]urea], Kb 0.025 µM. Against it:
- O=C(Nc1ccccc1F)NC1CCN(c2ncnc3c2nc(-c2ccccc2Cl)n3-c2ccc(OC(F)F)nc2)CC1 [Compound 21, 3-{1-[8-(2-Chlorophenyl)-9-[6-(difluoromethoxy)pyridin-3-yl]-9H-purin-6-yl]piperidin-4-yl}-1-(2-fluorophenyl)urea] — 9.6-fold higher, 0.24 µM

same assay, conditions: calcium mobilization, CHO-K1 cells; average of 3-6 measurements; read-out: Apparent antagonist dissociation constant (Ke) at hCB1

Point of comparison: `CCCS(=O)(=O)N1CCN(c2ncnc3c2nc(-c2ccccc2Cl)n3-c2ccc(Cl)cc2)CC1` [Compound 79, 8-(2-Chlorophenyl)-9-(4-chlorophenyl)-6-[4-(propylsulfonyl)piperazin-1-yl]-9H-purine], Kb 0.0024 µM. Against it:
- O=C(NCC1CCCCC1)NC1CCN(c2ncnc3c2nc(-c2ccccc2Cl)n3-c2ccc(OC(F)F)nc2)CC1 [Compound 17, 3-{1-[8-(2-Chlorophenyl)-9-[6-(difluoromethoxy)pyridin-3-yl]-9H-purin-6-yl]piperidin-4-yl}-1-(cyclohexylmethyl)urea] — 32-fold higher, 0.077 µM
- O=C(Nc1ccccc1F)NC1CCN(c2ncnc3c2nc(-c2ccccc2Cl)n3-c2ccc(C(F)(F)F)nc2)CC1 [Compound 20, 3-{1-[8-(2-Chlorophenyl)-9-[6-(trifluoromethyl)pyridin-3-yl]-9H-purin-6-yl]piperidin-4-yl}-1-(2-fluorophenyl)urea] — 100-fold higher, 0.25 µM
- O=C(Nc1ccc(F)c(F)c1)N1CCN(c2ncnc3c2nc(-c2ccccc2Cl)n3-c2ccc(Cl)cc2)CC1 [Compound 42, 4-[8-(2-Chlorophenyl)-9-(4-chlorophenyl)-9H-purin-6-yl]-N-(3,4-difluorophenyl)piperazine-1-carboxamide] — 2.1-fold higher, 0.005 µM
- O=C(Nc1ccc(F)cc1)N1CCN(c2ncnc3c2nc(-c2ccccc2Cl)n3-c2ccc(Cl)cc2)CC1 [Compound 43, 4-[8-(2-Chlorophenyl)-9-(4-chlorophenyl)-9H-purin-6-yl]-N-(4-fluorophenyl)piperazine-1-carboxamide] — within 1.5-fold, 0.002 µM
- O=C(Nc1ccc(OC(F)F)nc1)N1CCN(c2ncnc3c2nc(-c2ccccc2Cl)n3-c2ccc(Cl)cc2)CC1 [Compound 44, 4-[8-(2-Chlorophenyl)-9-(4-chlorophenyl)-9H-purin-6-yl]-N-[6-(difluoromethoxy)pyridin-3-yl]piperazine-1-carboxamide] — 5.4-fold higher, 0.013 µM
- O=C(Nc1ccccc1F)N1CCN(c2ncnc3c2nc(-c2ccccc2Cl)n3-c2ccc(Cl)cc2)CC1 [Compound 56, 4-[8-(2-Chlorophenyl)-9-(4-chlorophenyl)-9H-purin-6-yl]-N-(2-fluorophenyl)piperazine-1-carboxamide] — within 1.5-fold, 0.002 µM
- O=C(Nc1ccc(F)cc1F)N1CCN(c2ncnc3c2nc(-c2ccccc2Cl)n3-c2ccc(Cl)cc2)CC1 [Compound 57, 4-[8-(2-Chlorophenyl)-9-(4-chlorophenyl)-9H-purin-6-yl]-N-(2,4-difluorophenyl)piperazine-1-carboxamide] — 4.2-fold higher, 0.01 µM
- O=C(C1COc2ccccc2O1)N1CCN(c2ncnc3c2nc(-c2ccccc2Cl)n3-c2ccc(Cl)cc2)CC1 (stereo not shown) [Compound 61, 8-(2-Chlorophenyl)-9-(4-chlorophenyl)-6-[4-(2,3-dihydro-1,4-benzodioxin-2-ylcarbonyl)piperazin-1-yl]-9H-purine] — 2.5-fold higher, 0.0061 µM
- CCS(=O)(=O)N1CCN(c2ncnc3c2nc(-c2ccccc2Cl)n3-c2ccc(Cl)cc2)CC1 [Compound 78, 8-(2-Chlorophenyl)-9-(4-chlorophenyl)-6-[4-(ethylsulfonyl)piperazin-1-yl]-9H-purine] — 7.1-fold higher, 0.017 µM
- O=S(=O)(C1CC1)N1CCN(c2ncnc3c2nc(-c2ccccc2Cl)n3-c2ccc(Cl)cc2)CC1 [Compound 84, 8-(2-Chlorophenyl)-9-(4-chlorophenyl)-6-[4-(cyclopropylsulfonyl)piperazin-1-yl]-9H-purine] — 7.1-fold higher, 0.017 µM
- CS(=O)(=O)N1CCN(c2ncnc3c2nc(-c2ccccc2Cl)n3-c2ccc(Cl)cc2)CC1 [Compound 86, 8-(2-Chlorophenyl)-9-(4-chlorophenyl)-6-[4-(methylsulfonyl)piperazin-1-yl]-9H-purine] — within 1.5-fold, 0.0034 µM
- O=C(N1CCN(c2ncnc3c2nc(-c2ccccc2Cl)n3-c2ccc(Cl)cc2)CC1)C(F)(F)F [Compound 87, 8-(2-Chlorophenyl)-9-(4-chlorophenyl)-6-[4-(trifluoroacetyl)piperazin-1-yl]-9H-purine] — 6-fold lower, 0.0004 µM
- CCCCC(=O)N1CCN(c2ncnc3c2nc(-c2ccccc2Cl)n3-c2ccc(Cl)cc2)CC1 [Compound 103, 8-(2-Chlorophenyl)-9-(4-chlorophenyl)-6-(4-pentanoylpiperazin-1-yl)-9H-purine] — 4-fold lower, 0.0006 µM
- FC(F)(F)Oc1ccccc1CN1CCN(c2ncnc3c2nc(-c2ccccc2Cl)n3-c2ccc(Cl)cc2)CC1 [Compound 112, 8-(2-Chlorophenyl)-9-(4-chlorophenyl)-6-{4-[2-(trifluoromethoxy)benzyl]piperazin-1-yl}-9H-purine] — 1.7-fold higher, 0.004 µM
- N=C(Nc1ccc(F)cc1)N1CCN(c2ncnc3c2nc(-c2ccccc2Cl)n3-c2ccc(Cl)cc2)CC1 [Compound 116, 4-[8-(2-chlorophenyl)-9-(4-chlorophenyl)-9H-purin-6-yl]-N-(4-fluorophenyl)piperazine-1-carboximidamide] — 210-fold higher, 0.51 µM
- O=C(NC1CCCC1)N1CCN(c2ncnc3c2nc(-c2ccccc2Cl)n3-c2ccc(Cl)cc2)CC1 [Compound 117, 4-[8-(2-Chlorophenyl)-9-(4-chlorophenyl)-9H-purin-6-yl]-N-cyclopentylpiperazine-1-carboxamide] — 22-fold higher, 0.054 µM
- O=C(NC1(C(F)(F)F)CCCC1)N1CCN(c2ncnc3c2nc(-c2ccccc2Cl)n3-c2ccc(Cl)cc2)CC1 [Compound 118, 4-[8-(2-Chlorophenyl)-9-(4-chlorophenyl)-9H-purin-6-yl]-N-[1-(trifluoromethyl)cyclopentyl]piperazine-1-carboxamide] — 7.1-fold higher, 0.017 µM
- O=C(NC1CCCCC1)N1CCN(c2ncnc3c2nc(-c2ccccc2Cl)n3-c2ccc(Cl)cc2)CC1 [Compound 119, 4-[8-(2-chlorophenyl)-9-(4-chlorophenyl)-9H-purin-6-yl]-N-cyclohexylpiperazine-1-carboxamide] — 17-fold higher, 0.041 µM
- O=C(NCC1CCCCC1)N1CCN(c2ncnc3c2nc(-c2ccccc2Cl)n3-c2ccc(Cl)cc2)CC1 [Compound 120, 4-[8-(2-chlorophenyl)-9-(4-chlorophenyl)-9H-purin-6-yl]-N-(cyclohexylmethyl)piperazine-1-carboxamide] — 15-fold higher, 0.035 µM
- O=C(Nc1ccccc1)N1CCN(c2ncnc3c2nc(-c2ccccc2Cl)n3-c2ccc(Cl)cc2)CC1 [Compound 121, 4-[8-(2-chlorophenyl)-9-(4-chlorophenyl)-9H-purin-6-yl]-N-phenylpiperazine-1-carboxamide] — within 1.5-fold, 0.003 µM
- O=C(Nc1ccccn1)N1CCN(c2ncnc3c2nc(-c2ccccc2Cl)n3-c2ccc(Cl)cc2)CC1 [Compound 122, 4-[8-(2-Chlorophenyl)-9-(4-chlorophenyl)-9H-purin-6-yl]-N-(pyridin-2-yl)piperazine-1-carboxamide] — 3.3-fold higher, 0.008 µM

biological target: T1, hCB1; assay: radioligand displacement binding at CB1 (membranes of CHO-K1 cells over-expressing receptor); conditions: not given

Compound `N=C(Nc1ccc(F)cc1)N1CCN(c2ncnc3c2nc(-c2ccccc2Cl)n3-c2ccc(Cl)cc2)CC1` [Compound 116, 4-[8-(2-chlorophenyl)-9-(4-chlorophenyl)-9H-purin-6-yl]-N-(4-fluorophenyl)piperazine-1-carboximidamide] has a Ki of 0.47 µM.

same assay, conditions: CB1 versus CB2

`FC(F)(F)Oc1ccccc1CN1CCN(c2ncnc3c2nc(-c2ccccc2Cl)n3-c2ccc(Cl)cc2)CC1` [Compound 112, 8-(2-Chlorophenyl)-9-(4-chlorophenyl)-6-{4-[2-(trifluoromethoxy)benzyl]piperazin-1-yl}-9H-purine] was tested, and the “CB2 Ki/CB1 Ki selectivity ratio” value was 38000.

same assay, conditions: read-out: Binding affinity (Ki) at hCB1; radioligand displacement, CHO-K1 membranes; average of 3-6 measurements

Point of comparison: `O=C(Nc1ccc(F)c(F)c1)N1CCN(c2ncnc3c2nc(-c2ccccc2Cl)n3-c2ccc(Cl)cc2)CC1` [Compound 42, 4-[8-(2-Chlorophenyl)-9-(4-chlorophenyl)-9H-purin-6-yl]-N-(3,4-difluorophenyl)piperazine-1-carboxamide], Ki 0.005 µM. Against it:
- FC(F)(F)Oc1ccccc1CN1CCN(c2ncnc3c2nc(-c2ccccc2Cl)n3-c2ccc(Cl)cc2)CC1 [Compound 112, 8-(2-Chlorophenyl)-9-(4-chlorophenyl)-6-{4-[2-(trifluoromethoxy)benzyl]piperazin-1-yl}-9H-purine] — 2.5-fold lower, 0.002 µM

biological target: hCB2 (Homo sapiens, UniProt P34972); assay: radioligand displacement binding at CB2 ([3H]CP55940, membranes of CHO-K1 cells over-expressing receptor); conditions: not given

Point of comparison: `Fc1ccc(N2CCN(c3ncnc4c3nc(-c3ccccc3Cl)n4-c3ccc(Cl)cc3)CC2)cc1` [Compound 6, 8-(2-Chlorophenyl)-9-(4-chlorophenyl)-6-[4-(4-fluorophenyl)piperazin-1-yl]-9H-purine], Ki 3.93 µM. Against it:
- O=C(Nc1ccc(F)cc1F)NC1CCN(c2ncnc3c2nc(-c2ccccc2Cl)n3-c2ccc(Cl)cc2)CC1 [Compound 22, 3-{1-[8-(2-Chlorophenyl)-9-(4-chlorophenyl)-9H-purin-6-yl]piperidin-4-yl}-1-(2,4-difluorophenyl)urea] — higher, > 40 µM
- CC(c1ccccc1)N1CCN(c2ncnc3c2nc(-c2ccccc2Cl)n3-c2ccc(Cl)cc2)CC1 (stereo not shown) [Compound 69, 8-(2-Chlorophenyl)-9-(4-chlorophenyl)-6-[4-(1-phenylethyl)piperazin-1-yl]-9H-purine] — 3.1-fold lower, 1.28 µM
- Clc1ccc(-n2c(-c3ccccc3Cl)nc3c(N4CCN(CCc5ccccc5)CC4)ncnc32)cc1 [Compound 70, 8-(2-Chlorophenyl)-9-(4-chlorophenyl)-6-[4-(2-phenylethyl)piperazin-1-yl]-9H-purine] — 1.8-fold lower, 2.14 µM

same assay, conditions: displacement of [3H]CP55940, CHO-K1 membranes; average of 3-6 measurements

With `N#Cc1ccc(N2CCN(c3ncnc4c3nc(-c3ccccc3Cl)n4-c3ccc(Cl)cc3)CC2)cc1` [Compound 62, 4-{4-[8-(2-Chlorophenyl)-9-(4-chlorophenyl)-9H-purin-6-yl]piperazin-1-yl}benzonitrile] the “Binding affinity (Ki) at hCB2” value was “inactive”.
With `COc1ccc(N2CCN(c3ncnc4c3nc(-c3ccccc3Cl)n4-c3ccc(Cl)cc3)CC2)cc1` [Compound 72, 8-(2-Chlorophenyl)-9-(4-chlorophenyl)-6-[4-(4-methoxyphenyl)piperazin-1-yl]-9H-purine] the “Binding affinity (Ki) at hCB2” value was “inactive”.
In the case of `N#Cc1ccccc1N1CCN(c2ncnc3c2nc(-c2ccccc2Cl)n3-c2ccc(Cl)cc2)CC1` [Compound 74, 2-{4-[8-(2-Chlorophenyl)-9-(4-chlorophenyl)-9H-purin-6-yl]piperazin-1-yl}benzonitrile], the “Binding affinity (Ki) at hCB2” value is reported as “inactive”.
`Clc1ccc(-n2c(-c3ccccc3Cl)nc3c(N4CCN(c5ccccc5)CC4)ncnc32)cc1` [Compound 76, 8-(2-Chlorophenyl)-9-(4-chlorophenyl)-6-(4-phenylpiperazin-1-yl)-9H-purine] was tested, and the “Binding affinity (Ki) at hCB2” value was “inactive”.
For `Clc1ccc(CN2CCN(c3ncnc4c3nc(-c3ccccc3Cl)n4-c3ccc(Cl)cc3)CC2)cc1` [Compound 77, 6-[4-(4-Chlorobenzyl)piperazin-1-yl]-8-(2-chlorophenyl)-9-(4-chlorophenyl)-9H-purine], the “Binding affinity (Ki) at hCB2” value was “inactive”.
